This is a selection; strong and weak results do not stand in their true shares. Results filed as inconclusive are left out. The source made the active and inactive calls. Calls follow the shape of the dose curve; as a rule, active = well fitted curve in the direction sought with a large enough effect; inconclusive = small, poorly fitted or top-dose-only effect, or another doubt; inactive = no such curve, though single readings can be large or run the other way.

Chains of the proteins cited; added tags and fusions are not shown.
UniProt Q8NER1, whole entry: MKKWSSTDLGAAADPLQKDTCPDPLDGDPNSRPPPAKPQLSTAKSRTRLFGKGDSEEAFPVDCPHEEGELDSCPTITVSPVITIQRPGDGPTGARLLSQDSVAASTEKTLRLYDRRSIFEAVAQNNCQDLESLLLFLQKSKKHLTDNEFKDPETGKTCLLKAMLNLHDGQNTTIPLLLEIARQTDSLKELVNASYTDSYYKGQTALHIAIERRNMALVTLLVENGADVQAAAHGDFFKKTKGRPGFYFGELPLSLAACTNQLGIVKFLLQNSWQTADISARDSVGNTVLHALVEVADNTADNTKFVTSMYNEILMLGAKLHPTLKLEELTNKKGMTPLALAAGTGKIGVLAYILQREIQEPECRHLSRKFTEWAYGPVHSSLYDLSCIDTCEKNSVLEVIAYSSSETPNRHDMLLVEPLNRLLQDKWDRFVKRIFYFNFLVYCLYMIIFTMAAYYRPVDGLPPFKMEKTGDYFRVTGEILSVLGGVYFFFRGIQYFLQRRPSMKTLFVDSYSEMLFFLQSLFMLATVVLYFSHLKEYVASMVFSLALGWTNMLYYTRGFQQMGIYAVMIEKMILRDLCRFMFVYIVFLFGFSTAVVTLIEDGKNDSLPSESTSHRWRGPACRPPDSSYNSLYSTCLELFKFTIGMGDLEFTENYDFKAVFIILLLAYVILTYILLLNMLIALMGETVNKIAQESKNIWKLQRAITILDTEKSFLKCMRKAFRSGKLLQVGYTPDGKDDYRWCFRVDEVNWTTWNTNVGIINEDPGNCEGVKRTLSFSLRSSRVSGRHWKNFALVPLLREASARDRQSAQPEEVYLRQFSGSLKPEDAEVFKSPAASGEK

The test has as its target Transient receptor potential cation channel subfamily V member 1 (Homo sapiens) (UniProt Q8NER1). Kind of test: qHTS Assay for Compounds that Act as Potentiators of the Vanilloid Receptor 1: Hit Validation. Also: % of control where 0% means no effect. The note with it: TRPV1-expressing cells, Fluo-8 calcium influx, capsaicin EC20; at 42.1 µM (top of the series). From the text: The transient receptor potential ion channel, family V, number 1, (TRPV1) is one of the most important molecular transducers of painful stimuli and a potential target for analgesic drug development. Although recent clinical trials with orthosteric antagonists have not produced a successful drug because of a hyperthermia side effect and their tendency to block thermal noxious pain, this ion channel is undeniably well placed in the pain pathway, and the idea of blocking pain signals before they enter the CNS is an excellent concept and of proven efficacy when TRPV1 agonists are used. […]
Upon TRPV1 activation in TRPV1 cells, the channel opens and extracellular cations flow through the channel into the cytosol. […] The amount of accumulated calcium is precisely quantified using the FDSS kinetic reader and the calcium dye. […] Plates will be loaded into the FDSS kinetic reader and a 1 sec / cycle for 10 second baseline signal will be measured. Compound library will then be added with a pintool at 23 nl and measured kinetically for 3 minutes. This portion of the read is considered the agonist portion of the screen. […] Signal will be measured kinetically for an additional 2 minutes. This portion of the read is considered the allosteric enhancer portion of the screen. The FDSS reader has a standard filter set capable of measuring calcium bound Fluo-8 (ex=480 and em=520 nm).
(qHTS replaces the single test concentration by a dilution series.)
Regarding `COc1ccc(C(=O)NCC2(N3CCOCC3)CCCCC2)cc1OC`, the activity change, positive = potentiation is inactive: 4.55%.

For the origin of these results see PubChem BioAssay AID623959 (National Center for Advancing Translational Sciences (NCATS), 2012).
